Measured values as given in PubChem BioAssay AID624503 (The Scripps Research Institute Molecular Screening Center, 2012).
Active and inactive are the calls of the source. Active and inactive are the words of the source; unless stated, no cut-off is given here.

Sequences of proteins named here, by UniProt entry; tags and fusion partners are left off.
UniProt P35363, whole entry, looked up: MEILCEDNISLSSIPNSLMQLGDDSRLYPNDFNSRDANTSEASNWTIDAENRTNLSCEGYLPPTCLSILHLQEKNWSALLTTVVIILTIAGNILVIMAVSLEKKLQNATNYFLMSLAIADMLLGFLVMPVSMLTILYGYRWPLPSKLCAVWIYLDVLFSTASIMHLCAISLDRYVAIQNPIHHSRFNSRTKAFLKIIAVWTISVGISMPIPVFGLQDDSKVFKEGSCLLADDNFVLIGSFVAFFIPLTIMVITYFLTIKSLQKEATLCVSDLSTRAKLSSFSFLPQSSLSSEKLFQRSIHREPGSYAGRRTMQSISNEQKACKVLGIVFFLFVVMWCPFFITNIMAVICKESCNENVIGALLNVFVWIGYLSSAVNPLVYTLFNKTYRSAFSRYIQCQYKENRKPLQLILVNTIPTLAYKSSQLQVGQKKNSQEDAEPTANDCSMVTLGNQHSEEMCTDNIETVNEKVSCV

Target: 5-hydroxytryptamine receptor 2A (Mus musculus) (UniProt P35363)
Experiment: PubChem AID 624503
Conditions: HTR2A-expressing cells, agonist luminescence read-out

| Structure (SMILES) | EC50 |
| --- | --- |
| CC(CCc1ccc(O)cc1)NCCc1ccc(O)c(O)c1 (stereo not given) | 147 nM |
| CCCN1C[C@H](CSC)C[C@@H]2c3cccc4[nH]cc(c34)C[C@H]21 | < 3.8 nM |
| C#C[C@]1(O)CC[C@H]2[C@@H]3CCC4=CC(=O)CC[C@]4(C)[C@H]3CC[C@@]21C | 5850 nM |
| CN1C[C@H](C(=O)N[C@]2(C)O[C@@]3(O)[C@@H]4CCCN4C(=O)[C@H](Cc4ccccc4)N3C2=O)CC2c3cccc4[nH]cc(c34)C[C@H]21 (stereo not given in full) | inactive |
| CC(C)[C@@]1(NC(=O)[C@@H]2C[C@@H]3c4cccc5[nH]cc(c45)C[C@H]3N(C)C2)O[C@@]2(O)[C@@H]3CCCN3C(=O)[C@H](Cc3ccccc3)N2C1=O | inactive |
